Among the data in PubChem BioAssay AID540252 (Sanford-Burnham Center for Chemical Genomics, 2011) are IC50 values, retold here.

The experiment addresses glucose-6-phosphate dehydrogenase-6-phosphogluconolactonase (Plasmodium falciparum 3D7). The experiment in a line: inhibition of P. falciparum G6PD activity – biochemical, end-point NADPH detection, orthogonal assay, dose response (AID 540252). The settings on record: purified PfG6PD enzyme, NADPH direct detection.

pIC50: −log10 of the molar value.

The pIC50 is −log10 of the IC50, conventionally taken in molar units.

Consider `CNc1nc(-c2ccccc2)[n+](-c2ccc(C)cc2)s1`, for which the pIC50 was 5.06.
